Target: IRAK4 protein (Homo sapiens, UniProt Q9NWZ3)
Assay: IRAK4 Degradation Assay in THP-1 Cells (Western Blot)
Format: cell-based
Settings: 24 hours, 0.0128 to 1000 nM, IRAK4 protein level by Western Blot, tested form: free base

Sequences of proteins named here, by UniProt entry; tags and fusion partners are left off.
UniProt Q9NWZ3, whole entry: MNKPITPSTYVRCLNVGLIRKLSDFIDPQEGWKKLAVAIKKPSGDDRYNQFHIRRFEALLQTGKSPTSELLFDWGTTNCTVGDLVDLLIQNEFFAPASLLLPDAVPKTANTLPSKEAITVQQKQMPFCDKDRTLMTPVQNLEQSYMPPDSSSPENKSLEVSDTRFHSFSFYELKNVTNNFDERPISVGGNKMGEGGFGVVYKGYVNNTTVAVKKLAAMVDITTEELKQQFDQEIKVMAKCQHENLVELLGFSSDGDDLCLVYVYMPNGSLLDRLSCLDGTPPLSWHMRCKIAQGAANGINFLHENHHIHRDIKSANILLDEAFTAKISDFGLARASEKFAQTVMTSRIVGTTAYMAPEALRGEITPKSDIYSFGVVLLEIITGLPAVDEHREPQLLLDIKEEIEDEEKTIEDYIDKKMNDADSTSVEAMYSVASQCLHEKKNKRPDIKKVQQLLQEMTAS

SMILES: Cn1c(=O)n(C2CCC(=O)NC2=O)c2cccc(C#CCOC3CCC(CN4CCC5(Cc6cc(NC(=O)c7coc8cccnc78)c(N7CCC(CO)CC7)cc6O5)C4)CC3)c21 (centres unmarked)
- DC50: 3.3 nM
- Dmax%: 88.1%

Reference: patent publication EP4725946A1, “IRAK4 DEGRADATION AGENT AND USE THEREOF” (Guangzhou Unirise Pharmaceutical Co., Ltd., priority 2023, dated 2024)
